# In patent publication US9108983B2, “Pyrrole compounds, a process for their preparation and pharmaceutical compositions containing them” (LES LABORATOIRES SERVIER, priority 2013, dated 2015):
# The chains behind the UniProt entries cited, without tags or fusion partners.
# UniProt P10415, whole entry: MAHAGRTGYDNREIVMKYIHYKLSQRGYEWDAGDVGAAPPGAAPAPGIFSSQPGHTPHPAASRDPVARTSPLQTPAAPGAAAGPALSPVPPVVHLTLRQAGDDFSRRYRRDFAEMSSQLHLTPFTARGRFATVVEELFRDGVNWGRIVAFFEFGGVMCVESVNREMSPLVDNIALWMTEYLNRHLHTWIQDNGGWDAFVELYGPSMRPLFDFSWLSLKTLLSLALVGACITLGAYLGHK
# Molecular target: Bcl-2 protein (histag-Bcl-2, UniProtKB P10415) (Homo sapiens (Human), UniProt P10415)
# Experiment: Inhibition of Bcl-2 by the fluorescence polarisation technique
# Type: binding
# Conditions: incubation for 2 hours, read-out: IC50 (nM) Bcl-2 FP
smiles,measurement,value
"Cc1c(C(=O)N(c2ccc(O)cc2)c2cnn(C)c2)cc(-c2cc(F)ccc2C(=O)N2Cc3ccccc3C[C@H]2CN2CCOCC2)n1C [Example 67, 5-(5-Fluoro-2-{[(3S)-3-(morpholin-4-ylmethyl)-3,4-dihydroisoquinolin-2(1H)-yl]carbonyl}phenyl)-N-(4-hydroxyphenyl)-1,2-dimethyl-N-(1-methyl-1H-pyrazol-4-yl)-1H-pyrrole-3-carboxamide hydrochloride]",IC50,12.5 nM

# Where a name gives a salt, the structure may show the parent alone.
